# Values quoted from earlier work as cited in patent publication US20060003989A1, “Compositions and methods using acetylcholinesterase (ACE) inhibitors to treat central nervous system (CNS) disorders in mammals” (priority 2002, published 2006).
# Tested on: cholinesterase
# Settings: in rats; cited from earlier work
structure (smiles),measurement,value
COc1cc2c(cc1OC)C(=O)C(CC1CCN(Cc3ccccc3)CC1)C2 (stereo not shown) [donepezil],minimal therapeutic concentration (MTC),0.42 nmol/gm
